UUG fidelity: modulators of yeast start codon fidelity, primary screen, whole organism, S. cerevisiae, single point, plate reader; S. cerevisiae UUG-firefly luciferase reporter, luminescence/redox ratio; activity score, % at 18.7 µM; actives 0.13% (n = 350,000); AID 602363, 2012;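 active = replicate mean at a twofold rise or more, about +100% in these data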;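 also: firefly luciferase made from a UUG start codon reports start codon fidelity; reporter light over untreated wells divided by growth signal over untreated wells; some hits fall short of that in this replicate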
ERp5 inh: ERp5 (human) disulfide isomerase inhibition | Q15084 | ERp5 insulin aggregation, absorbance 650 nm, 90 min | inhibition, % at 9.99 µM | AID 651711 | 350,000 tested, 0.05% active;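 active = mean replicate inhibition above about 25%, with every replicate also reaching it, limit read from the data, passing the limit was not always enough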
Cneo AK release: causes C. neoformans cell lysis | lysis activity, % at 15 µM | 360,000 tested, 0.2% active | AID 651654 | adenylate kinase release luminescence, 4 h; normalised: neutral wells 0, clomiphene wells 100;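 active = mean lysis activity across replicates of at least 80%, whatever share of replicates individually reach that level; inactive = mean lysis activity below 80%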
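Assay system: log-phase C. neoformans yeast / Quantity: yeast cell density of 5 × 10^6 cells/mL / Medium: fresh YPD growth medium / Compound: single dose / Timing: static 4 h at 37 °C with compound, 1 h detection / Measured by: adenylate kinase release luminescence / Read-out: lysis from increased AK signal / Benchmarks: Clomiphene as positive lysis control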
PDI inh: PDI (human) enzyme inhibition; P07237; PDI insulin aggregation turbidity, A650, 90 min; inhibition, % at 10 µM; 350,000 tested, 0.052% active;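 active = mean inhibition across replicates of 30% or more, whatever share of single replicates reach that level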
Large screens that a line does not name were inactive; ! = repeats disagree. Compounds with a hit are over-represented: about 0.34% of the library has one in this group of screens.

O=C(C[C@@H]1C[C@H]2c3cc(NC(=O)C4CCC4)ccc3O[C@H]2[C@@H](CO)O1)NCC(F)(F)F	ERp5 inh 77 (no result: PDI inh)
CN(C)C(=S)NC(=O)C12CC3CC(C)(CC(C)(C3)C1)C2	none (no result: UUG fidelity, Cneo AK release)
CC12CC3CC(C)(C1)CC(C(=O)NC(=S)N1CCCCC1)(C3)C2	Cneo AK release 111
O=C(c1cnccn1)N1CC(=O)N2[C@H](C1)[C@@H](c1ccc(-c3ccccc3)cc1)[C@@H]2CO	none (no result: UUG fidelity, Cneo AK release, PDI inh)
C[C@]12CC[C@H]3C(=CCc4cc(O)ccc43)[C@@H]1CCC2=O	PDI inh 33
C[C@H]1CN([C@@H](C)CO)C(=O)Cc2cc(NC(=O)Nc3cccc4ccccc34)ccc2O[C@H]1CN(C)Cc1ccc(C(F)(F)F)cc1	ERp5 inh 69 (no result: PDI inh)
C[C@@H]1CN([C@H](C)CO)C(=O)Cc2cc(NC(=O)Nc3cccc4ccccc34)ccc2O[C@H]1CN(C)Cc1ccc(C(F)(F)F)cc1	none (no result: PDI inh)
COc1ccc(CN(C)C[C@@H]2Oc3ccc(NC(=O)Nc4ccc(F)cc4)cc3CC(=O)N([C@H](C)CO)C[C@H]2C)cc1	Cneo AK release 115 (no result: PDI inh)
C[C@H](CO)N1C[C@H](C)[C@H](CN(C)Cc2ccc(C(F)(F)F)cc2)Oc2ccc(NC(=O)Nc3cccc4ccccc34)cc2CC1=O	ERp5 inh 64 (no result: PDI inh)
C[C@@H]1CN([C@@H](C)CO)C(=O)Cc2cc(NC(=O)Nc3cccc4ccccc34)ccc2O[C@@H]1CN(C)S(=O)(=O)c1cccs1	Cneo AK release 95 (no result: ERp5 inh, PDI inh)
COc1ccc(NC(=O)N2CC(=O)N3[C@H](CO)[C@H](c4ccc(Br)cc4)[C@@H]3C2)cc1	none (no result: UUG fidelity, Cneo AK release, PDI inh)
CCCNC(=O)N1[C@@H](C#N)[C@@H](c2ccc(-c3ccccc3F)cc2)[C@@H]1CO	none (no result: UUG fidelity, PDI inh)
CCCNC(=O)C[C@@H]1CC[C@@H]2[C@H](COc3ccc(NC(=O)NCCC)cc3C(=O)N2C)O1	none (no result: UUG fidelity, Cneo AK release, PDI inh)
C[C@H]1CN([C@@H](C)CO)C(=O)Cc2cc(NC(=O)Nc3ccc(C(F)(F)F)cc3)ccc2O[C@@H]1CN(C)Cc1ccc(Cl)c(Cl)c1	none (no result: PDI inh)
C[C@@H]1CN([C@@H](C)CO)C(=O)Cc2cc(NC(=O)Nc3ccc(C(F)(F)F)cc3)ccc2O[C@@H]1CN(C)Cc1ccc(Cl)c(Cl)c1	ERp5 inh 50 (no result: PDI inh)
COc1cccc(S(=O)(=O)N2CC3(CN(C(=O)Nc4cccc(F)c4)[C@H](CO)c4[nH]c5cc(OC)ccc5c43)C2)c1	ERp5 inh 69 (no result: UUG fidelity, Cneo AK release, PDI inh)
COc1ccc2c3c([nH]c2c1)[C@@H](CO)N(C(=O)Nc1cccc(F)c1)CC31CN(S(=O)(=O)c2cccc(C)c2)C1	none (no result: UUG fidelity, Cneo AK release, PDI inh)
COc1ccc2c3c([nH]c2c1)[C@@H](CO)N(C(=O)CN(C)C)CC31CCN(CC2CCCC2)CC1	none (no result: UUG fidelity, Cneo AK release, PDI inh)
COc1ccc2c3c([nH]c2c1)[C@H](CO)N(C(=O)CN(C)C)CC31CCN(CC2CCCC2)CC1	ERp5 inh 74 (no result: UUG fidelity, Cneo AK release, PDI inh)
CN(C)CCCNC(=O)C[C@@H]1CC[C@@H]2[C@@H](COc3ccc(NC(=O)c4ccccc4F)cc3C(=O)N2C)O1	none (no result: PDI inh)
O=C(O)CN1C(=O)/C(=C\c2ccc(OC(=O)c3ccco3)cc2)SC1=S	PDI inh 43
C[C@@H]1CN([C@H](C)CO)C(=O)Cc2cc(NS(=O)(=O)c3cn(C)cn3)ccc2O[C@@H]1CN(C)S(=O)(=O)c1ccc(Cl)cc1	none (no result: PDI inh)
CCCNC(=O)C[C@@H]1CC[C@@H]2[C@H](COc3ccc(NC(=O)CCC)cc3C(=O)N2C)O1	Cneo AK release 110 (no result: PDI inh)
CN1C(=O)c2cc(NS(C)(=O)=O)ccc2OC[C@@H]2O[C@@H](CC(=O)O)CC[C@@H]21	Cneo AK release 90 (no result: PDI inh)
CNC(=O)C[C@@H]1CC[C@@H]2[C@H](COc3ccc(NC(=O)c4cc(C)on4)cc3C(=O)N2C)O1	Cneo AK release 96 (no result: ERp5 inh, PDI inh)
CNC(=O)C[C@H]1CC[C@@H]2[C@@H](COc3ccc(NC(=O)c4cc(C)on4)cc3C(=O)N2C)O1	none (no result: ERp5 inh, PDI inh)
CC(=O)Nc1ccc2c(c1)C(=O)N(C)[C@@H]1CC[C@@H](CC(=O)NCC3CC3)O[C@H]1CO2	ERp5 inh 71 (no result: PDI inh)
Cc1ccc(-c2cnc3c(c2)C(=O)N([C@H](C)CO)C[C@H](C)[C@H](CN(C)C(=O)c2ccccc2)O3)cc1	none (no result: PDI inh)
C[C@H]1CCCCO[C@H](CN(C)C(=O)Nc2ccccc2)[C@@H](C)CN([C@@H](C)CO)C(=O)c2cc(NS(=O)(=O)c3cccs3)ccc2O1	none (no result: PDI inh)
CN1C(=O)c2cc(NC(=O)c3cnccn3)ccc2OC[C@H]2O[C@@H](CC(=O)NC3CCC3)CC[C@H]21	none (no result: PDI inh)
O=C(CSc1nc(-c2ccccc2)c(-c2ccccc2)o1)N1CCOCC1	UUG fidelity 111 (no result: ERp5 inh)
COCC(=O)N1C[C@@H](C)[C@@H](OC)CN(C)C(=O)c2ccc(NS(C)(=O)=O)cc2OC[C@@H]1C	none (no result: UUG fidelity, PDI inh)
CN1CCN(C2=C(Cl)C(=O)c3ccccc3C2=O)CC1	PDI inh 41 (no result: UUG fidelity, Cneo AK release)
C[C@@H]1CCCCO[C@H](CN(C)C(=O)C2CCCCC2)[C@H](C)CN([C@@H](C)CO)C(=O)c2cc(NC(=O)Nc3ccc(C(F)(F)F)cc3)ccc2O1	none (no result: PDI inh)
CCO[C@@H]1OC(C(=O)Nc2ccccc2)=C[C@H](c2coc3ccccc3c2=O)[C@H]1CCCO	Cneo AK release 102!
COc1ccc(Cc2nnc(SCC(=O)NC3(C#N)CCCCC3)n2N)cc1	ERp5 inh 25
COCCNC(=O)C[C@@H]1C[C@H]2c3cc(NC(=O)C4CCC4)ccc3O[C@H]2[C@H](CO)O1	none (no result: PDI inh)
COCCNC(=O)C[C@H]1C[C@@H]2c3cc(NC(=O)C4CCC4)ccc3O[C@@H]2[C@H](CO)O1	Cneo AK release 103 (no result: PDI inh)
CN1CCN(C(=O)C[C@@H]2C[C@@H]3c4cc(NC(=O)C5CCOCC5)ccc4O[C@@H]3[C@H](CO)O2)CC1	ERp5 inh 37 (no result: PDI inh)
CN1CCN(C(=O)C[C@@H]2C[C@H]3c4cc(NC(=O)C5CCOCC5)ccc4O[C@H]3[C@@H](CO)O2)CC1	none (no result: PDI inh)
COCCNC(=O)C[C@@H]1C[C@@H]2c3cc(NC(=O)C4CCOCC4)ccc3O[C@@H]2[C@@H](CO)O1	Cneo AK release 98 (no result: PDI inh)
Cc1noc(C)c1NC(=O)Nc1ccc2c(c1)C(=O)N([C@H](C)CO)C[C@@H](C)[C@@H](CN(C)S(=O)(=O)c1ccccc1)OCCCC[C@@H](C)O2	none (no result: PDI inh)
O=C(c1cccnc1)N1CC2(C1)[C@H](c1ccccc1)[C@@H](CO)N2Cc1ccc(Cl)cc1	none (no result: UUG fidelity, Cneo AK release, PDI inh)
Cc1noc(C)c1S(=O)(=O)N(C)C[C@@H]1OCCCC[C@H](C)Oc2ccc(NS(=O)(=O)c3ccc(Cl)cc3)cc2C(=O)N([C@H](C)CO)C[C@@H]1C	none (no result: PDI inh)
Cc1cc2nc(N3CCN(C(=O)c4cccs4)CC3)sc2cc1C	none
Cc1cc(C)c2nc(N3CCN(C(=O)c4cccs4)CC3)sc2c1	Cneo AK release 148
CCCN1C[C@@H](C)[C@H](OC)CN(C)C(=O)c2ccc(NC(=O)c3cccc(F)c3)cc2OC[C@@H]1C	Cneo AK release 115 (no result: PDI inh)
CCCN1C[C@@H](C)[C@@H](OC)CN(C)C(=O)c2cc(NC(=O)c3cccc(F)c3)ccc2OC[C@@H]1C	none (no result: PDI inh)
CO[C@H]1CN(C)C(=O)c2cc(NC(=O)Nc3cccc(F)c3)ccc2OC[C@H](C)N(C)C[C@H]1C	Cneo AK release 103 (no result: PDI inh)
